Source: ChEMBL document CHEMBL1136078, “Fundamental structure-activity relationships associated with a new structural class of respiratory syncytial virus inhibitor” (Bioorg Med Chem Lett, 2003)

These compounds were tested on HEp-2 (assay: Concentration that causes cytotoxicity to uninfected HEp-2 human lung carcinoma cell line).
Assay type: functional
Compound c1ccc2c(c1)nnn2Cc1nc2ccccc2n1CCN1CCCCCC1 has a CC50 of 67.1 µM. c1ccc2nn(Cc3nc4ccccc4n3CCN3CCCCC3)nc2c1 was tested, and the CC50 was 64 µM. With CN1CCC[C@H]1Cn1c(Cn2nnc3ccccc32)nc2ccccc21 the CC50 was 181 µM. Compound CN1CCC[C@@H]1Cn1c(Cn2nnc3ccccc32)nc2ccccc21 has a CC50 of 24.4 µM. In the case of CN(C)CCn1c(Cn2nnc3ccccc32)nc2ccccc21, the CC50 is reported as 234 µM. c1ccc2c(c1)nnn2Cc1nc2ccccc2n1CCN1CCCCC1 was tested, and the CC50 was 75 µM. With CN(C)CCn1c(Cn2nc3ccccc3n2)nc2ccccc21 the CC50 was 212 µM. CCN(CC)CCn1c(Cn2nnc3ccccc32)nc2ccccc21 gave a CC50 of 216 µM. Work on c1ccc2nn(Cc3nc4ccccc4n3CCN3CCCCCC3)nc2c1 yielded a CC50 of 23 µM. Work on c1ccc2c(c1)nnn2Cc1nc2ccccc2n1CCN1CCCC1 yielded a CC50 of 80 µM. CC(C)N(CCn1c(Cn2nnc3ccccc32)nc2ccccc21)C(C)C showed a CC50 of 42.3 µM. CNCCn1c(Cn2nnc3ccccc32)nc2ccccc21 gave a CC50 of 74.5 µM. In the case of c1ccc2nn(Cc3nc4ccccc4n3CCN3CCCC3)nc2c1, the CC50 is reported as 127 µM. Compound C[N+](C)(C)CCn1c(Cn2nnc3ccccc32)nc2ccccc21 has a CC50 of 42.5 µM. Work on CCN(CC)CCn1c(Cn2nc3ccccc3n2)nc2ccccc21 yielded a CC50 of 83.7 µM.

Only a part of the results on these compounds is given; other tests are left out.
